Experimental data: paper doi:10.1101/2021.05.17.444520v1 (biorxiv, 2021)

The chains behind the UniProt entries cited, without tags or fusion partners. Residues count along the entry.
UniProt P48167, 23-355, stated change not applied: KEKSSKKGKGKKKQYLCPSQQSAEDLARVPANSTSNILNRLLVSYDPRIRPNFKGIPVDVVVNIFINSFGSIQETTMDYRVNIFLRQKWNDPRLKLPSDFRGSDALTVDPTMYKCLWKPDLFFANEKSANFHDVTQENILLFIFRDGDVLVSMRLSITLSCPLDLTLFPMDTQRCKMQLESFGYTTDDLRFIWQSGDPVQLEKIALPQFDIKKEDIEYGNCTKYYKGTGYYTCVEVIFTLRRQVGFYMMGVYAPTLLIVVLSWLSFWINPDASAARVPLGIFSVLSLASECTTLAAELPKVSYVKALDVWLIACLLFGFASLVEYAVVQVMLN
UniProt P48167, 400-497, stated change not applied: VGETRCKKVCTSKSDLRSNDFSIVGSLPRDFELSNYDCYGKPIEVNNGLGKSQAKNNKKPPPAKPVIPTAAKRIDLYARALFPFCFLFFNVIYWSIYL

How the values were obtained:
[1] = molecular target: heteromeric α2β GlyR (α2em:βem) (Homo sapiens, UniProt P23416+P48167, P23416:DEL344-408/P23416:INS343GSSG/P48167:DEL356-399); assay: whole-cell patch clamp; assay type: cell-based
[2] = molecular target: T1, homomeric α2 GlyR (α2em) (Homo sapiens, UniProt P23416, DEL344-408/INS343GSSG); assay: whole-cell patch clamp; assay type: cell-based
T1 sequence (P23416 with tags, fused parts or gaps INS343GSSG/DEL344-408): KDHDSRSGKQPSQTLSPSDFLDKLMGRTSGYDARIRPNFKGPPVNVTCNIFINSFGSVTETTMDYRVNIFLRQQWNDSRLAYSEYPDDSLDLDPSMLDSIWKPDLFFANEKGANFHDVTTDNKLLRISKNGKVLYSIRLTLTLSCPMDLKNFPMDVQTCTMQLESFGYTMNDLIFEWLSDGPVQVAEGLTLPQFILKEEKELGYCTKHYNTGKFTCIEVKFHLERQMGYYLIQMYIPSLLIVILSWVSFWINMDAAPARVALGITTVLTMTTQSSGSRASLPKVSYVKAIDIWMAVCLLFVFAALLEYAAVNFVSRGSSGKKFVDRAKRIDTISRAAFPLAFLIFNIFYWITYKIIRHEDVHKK

EC50 [1]: ~60 µM | EC50 [2]: ~100 µM
Structure (SMILES): NCC(=O)O [glycine]
